Measurements: ChEMBL document CHEMBL1129490, “Synthesis, biological evaluation, and quantitative receptor docking simulations of 2-[(acylamino)ethyl]-1,4-benzodiazepines as novel tifluadom-like ligands with high affinity and selectivity for kappa-opioid receptors” (1996)

Amino acid sequences for entries named in this document (tags omitted). A change or cut given only in a name is not applied to a line headed by its entry.
UniProt P97266, whole entry, looked up: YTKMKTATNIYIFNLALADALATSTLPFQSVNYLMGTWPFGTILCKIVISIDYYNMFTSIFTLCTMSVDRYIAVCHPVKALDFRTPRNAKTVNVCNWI
UniProt P41144: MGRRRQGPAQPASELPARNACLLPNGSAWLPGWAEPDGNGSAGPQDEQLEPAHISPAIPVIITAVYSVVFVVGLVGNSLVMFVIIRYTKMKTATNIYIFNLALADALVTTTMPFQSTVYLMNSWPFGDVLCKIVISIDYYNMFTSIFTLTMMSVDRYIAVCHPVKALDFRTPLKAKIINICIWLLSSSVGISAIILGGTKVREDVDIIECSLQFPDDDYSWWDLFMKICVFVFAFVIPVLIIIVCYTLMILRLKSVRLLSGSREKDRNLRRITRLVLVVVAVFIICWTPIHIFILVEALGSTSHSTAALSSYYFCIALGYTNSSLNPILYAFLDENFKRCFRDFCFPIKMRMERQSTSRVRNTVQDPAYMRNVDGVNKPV
UniProt P30551, whole entry, looked up: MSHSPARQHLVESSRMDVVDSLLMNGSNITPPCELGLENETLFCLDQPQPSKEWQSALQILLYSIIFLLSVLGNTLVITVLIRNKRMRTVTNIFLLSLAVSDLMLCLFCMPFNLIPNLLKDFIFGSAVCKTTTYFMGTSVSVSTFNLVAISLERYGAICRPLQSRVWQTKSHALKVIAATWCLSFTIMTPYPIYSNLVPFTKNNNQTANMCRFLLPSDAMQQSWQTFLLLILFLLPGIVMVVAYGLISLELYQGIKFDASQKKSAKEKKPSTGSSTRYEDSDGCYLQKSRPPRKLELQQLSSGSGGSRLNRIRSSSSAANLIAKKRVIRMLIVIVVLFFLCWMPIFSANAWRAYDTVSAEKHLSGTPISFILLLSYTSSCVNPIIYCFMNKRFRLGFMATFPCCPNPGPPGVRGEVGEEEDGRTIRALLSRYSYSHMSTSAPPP

How the values were obtained:
Mu-type opioid receptor = Mu-type opioid receptor (Cavia porcellus, UniProt P97266); assay: Binding affinity against Opioid receptor mu 1 using [3H]-DAMGO as radioligand in guinea pig brain
[1] = biological target: T1, Kappa-type opioid receptor (Cavia porcellus, UniProt P41144); assay: Binding affinity against Opioid receptor kappa 1 in guinea pig.
[2] = biological target: T1, Kappa-type opioid receptor; assay: Binding affinity against Opioid receptor kappa 1 of guinea pig using [3H]U-65693 as radioligand
[3] = biological target: Cholecystokinin receptor type A (Rattus norvegicus, UniProt P30551); assay: Binding affinity against Cholecystokinin type A receptor using [125I](BH)-CCK-8 as radioligand in rat pancreas.

Compound | Ki (Mu-type opioid receptor) [nM] | Log Ki [1] | Ki [2] [nM] | Ki [3] [nM] | Log Ki [2]
CN1c2ccccc2C(c2ccccc2)=NCC1CCNC(=O)c1ccc(F)cc1 (stereo not drawn) | 2.26 | -9.25 | 0.56 | – | –
CN(C(=O)Cc1ccc(Cl)c(Cl)c1)C1CCCCC1N1CCCC1 (stereo not drawn) | – | -9.04 | – | – | –
CN1c2ccc(Cl)cc2C(c2ccccc2)=NCC1CCNC(=O)c1ccc(Cl)cc1 (stereo not drawn) | > 100 | – | 35 | – | –
CN1c2ccc(Cl)cc2C(c2ccccc2)=NCC1CCNC(=O)c1cccs1 (stereo not drawn) | 69.4 | -8.05 | 8.84 | – | –
CN1c2ccccc2C(c2ccccc2)=NCC1CCNC(=O)c1cccs1 (stereo not drawn) | 6.42 | -9.3 | 0.5 | – | –
CN1c2ccc(Cl)cc2C(c2ccccc2)=NCC1CCNC(=O)c1ccccc1F (stereo not drawn) | 62.1 | -7.75 | 17.9 | – | –
CN1c2ccccc2C(c2ccccc2F)=NCC1CNC(=O)c1ccsc1 (stereo not drawn) | 1.93 | – | 0.78 | 47 | –
CN1c2ccc(Cl)cc2C(c2ccccc2)=NCC1CCNC(=O)c1ccc(F)cc1 (stereo not drawn) | 53.2 | -8.32 | 4.74 | – | –
CN(C(=O)Cc1ccccc1)[C@H]1CC[C@@]2(CCCO2)C[C@@H]1N1CCCC1 | – | -8.75 | – | – | –
CN1c2ccc(Cl)cc2C(c2ccccc2)=NCC1CCNC(=O)c1cc2ccccc2[nH]1 (stereo not drawn) | > 100 | – | 296 | – | –
CN1c2ccccc2C(c2ccccc2)=NCC1CCNC(=O)c1ccccc1F (stereo not drawn) | 4.69 | -8.99 | 1.03 | – | –
CN1c2ccccc2C(c2ccccc2F)=NC[C@@H]1CNC(=O)c1ccsc1 | – | – | – | – | -9.1
